Reference: publication PMC12527922, “Cocaine chemogenetics blunts drug-seeking by synthetic physiology” (Nature, 2025)

Amino acid sequences for entries named in this document (tags omitted). Residues count along the entry.
UniProt P36544, 23-224 L141G/G175K/Y210F/Y217F: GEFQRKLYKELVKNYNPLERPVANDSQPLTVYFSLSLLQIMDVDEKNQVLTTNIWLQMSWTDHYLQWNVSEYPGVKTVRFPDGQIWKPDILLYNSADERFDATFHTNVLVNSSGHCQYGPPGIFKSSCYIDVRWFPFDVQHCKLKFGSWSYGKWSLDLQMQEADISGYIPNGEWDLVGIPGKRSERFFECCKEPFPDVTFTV

What was measured:
[1] = target: coca-5HT3 (α7(L141G,G175K,Y210F,Y217F)–5HT3) (Homo sapiens, UniProt P36544, G175K/L141G/Y210F/Y217F); assay: Membrane potential assay, coca-5HT3 in HEK293; conditions: conc 333.333 uM, ED Fig 3a
coca-5HT3 = coca-5HT3 (Homo sapiens, UniProt P36544, G175K/L141G/Y210F/Y217F); assay: [^3H]ASEM displacement, membranes of HEK293 cells expressing coca-5HT3; type: binding, human α7 nAChR LBD, mouse 5HT3 IPD; conditions: Two sites - Fit Ki
Experimental: Cells were suspended in Tris-HCl 50 mM pH 7.4 supplemented with protease inhibitor cocktail (1:100, Sigma-Aldrich). HEK293 cells were disrupted with a 6 Polytron homogenizer (Kinematica). Homogenates were centrifuged at 48,000g (50 min, 4 °C) and washed twice in the same conditions to isolate the membrane fraction. Protein was quantified using the bicinchoninic acid method (Pierce). Membrane suspensions (50 µg of protein per ml) were incubated in 50 mM Tris-HCl (pH 7.4) containing 8 mM CaCl2, 2 nM of [^3H]ASEM (26 Ci mmol^−1, Novandi Chemistry) and increasing concentrations of the tested compounds during 2 h at room temperature as previously described. Non-specific binding was determined in the presence of 100 µM of non-radiollabeled ASEM. Free and membrane-bound radioligands were separated by rapid filtration of 500 μl aliquots in a 96-well plate harvester (Brandel) and washed with 2 ml of ice-cold Tris-HCl buffer. Microscint-20 scintillation liquid (65 μl per well, PerkinElmer) was added to the filter plates, plates were incubated overnight at room temperature and radioactivity counts were determined in the MicroBeta2 plate counter (PerkinElmer) with an efficiency of 41%. Two-site competition curves were fitted using Prism 10 (GraphPad). Ki values were calculated using the Cheng–Prusoff equation.

For CNC[C@H](O)c1ccc(O)c(O)c1 [Epinephrine], the Response [1] was 0.325.
With O=S1(=O)c2cc(N3CCN4CCC3CC4)ccc2-c2cccc(F)c21 [ASEM] the Ki (coca-5HT3; MEAN of 3 experiments, read-out: KiHi MEAN) was 1.5e-09 M, the Ki (coca-5HT3; MEAN of 3 experiments, read-out: KiLo MEAN) was 1.17e-06 M and the logKiHi (coca-5HT3; best-fit value per replicate, high-affinity site, concentrations in log(M), HotNM 2.000, HotKdNM 0.1500) was -11.33 and -11.28 and -10.47. For the same compound, the Ki (coca-5HT3; best-fit value per replicate, high-affinity site, concentrations in log(M), read-out: KiHi) was 4.65e-12 M and 5.23e-12 M and 3.39e-11 M, the logKiLo (coca-5HT3; best-fit value per replicate, low-affinity site, concentrations in log(M), HotNM 2.000, HotKdNM 0.1500) was -6.722 and -6.488 and -5.891 and the Ki (coca-5HT3; best-fit value per replicate, low-affinity site, concentrations in log(M), read-out: KiLo) was 1.9e-07 M and 3.25e-07 M and 1.28e-06 M. The Ki (coca-5HT3; MEAN of replicates, high-affinity site, concentrations in log(M), read-out: KiHi MEAN) was 1.46e-11 M and the Ki (coca-5HT3; MEAN of replicates, low-affinity site, concentrations in log(M), read-out: KiLo MEAN) was 6e-07 M.

“And” between values parts separate entries of the source, which are not always exact repeats. Equal entries are not always repeated. Where two headings read alike, the source gives them in different places.
